## Apparent affinities of Ab-91 variants for a coronavirus HR2 peptide

The measurements come from Engelhart et al. 2022 (doi:10.1038/s41597-022-01779-4) through the FLAb antibody collection.

The target is the same throughout: PDVDLGDISGINAS, from the HR2 region of SARS-CoV-2 spike.

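The parent was found by panning a naive human phage display library on the peptide. The library (AAYL51) carries one to three amino acid substitutions per variant, with no insertions or deletions. The scFvs were displayed on barcoded MATa yeast, the peptide on MATalpha yeast. Binding brings cells together so that they mate, and sequencing counts the barcode pairs among the diploids. The ratio of observed to expected reads was calibrated, replicate by replicate, on BCL2-family standards whose Kd was known from biolayer interferometry. Each pool was mated in three replicate cultures.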

The variants keep the light chain, the linker and the frameworks of Ab-91 (scFv order VL, a (GGGGS)3 linker, VH).
VL: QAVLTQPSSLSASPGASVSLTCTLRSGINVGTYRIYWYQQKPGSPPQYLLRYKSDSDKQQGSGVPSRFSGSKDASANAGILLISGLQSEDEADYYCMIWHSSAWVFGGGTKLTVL
VH: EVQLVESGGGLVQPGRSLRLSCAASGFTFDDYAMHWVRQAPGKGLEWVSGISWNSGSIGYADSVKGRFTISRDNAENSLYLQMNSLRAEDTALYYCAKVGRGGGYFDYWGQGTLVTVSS

Positions count from residue 1 of the parent VH; D30G puts G in place of D. Values are log10 of the apparent Kd in nM; lower means stronger binding. Averages over replicates are reported, and they cover detected replicates only. A pair that was not seen in any replicate is written "nd"; this usually means weak binding, but a binder can also be missed. Three control strains display no target. For library AAYL51, 21% of the pairings with them gave a signal, with a median of 4.54 and one signal in twenty below 3.26, so weak values seen in few replicates may be background.

"log10 Kd (nM), mean",replicates with signal,changes
nd,0 of 3,D30G/I58R/G103D
0.92,3 of 3,T28D/F106K/D107R
3.73,1 of 3,H35M/Y60E/G102N
nd,0 of 3,F29Y/S63V/F106C
4.13,1 of 3,T28G/M34F
4.73,2 of 3,G26I/W53L/F106A
5.10,1 of 3,W53T/V99I/G103H
4.67,2 of 3,W53P/S55W/G104F
nd,0 of 3,F29M/D30M/W53T
3.68,2 of 3,S55K/G56Q
1.31,3 of 3,G56Y/V99T/Y108M
nd,0 of 3,H35M/S55G/D62N
3.08,3 of 3,S55T/K65Y/Y108V
3.77,1 of 3,F29Q/K65I/R101P
4.55,2 of 3,G50L/R101H
nd,0 of 3,T28V/I51E/S57K
nd,0 of 3,F27Y/S52W/Y60Q
4.30,3 of 3,V64P/K65E/G102N
4.60,2 of 3,G26R/M34Y/G50K
nd,0 of 3,F27M/D62F/D107F
5.16,1 of 3,A33T/H35Q/G104N
0.66,3 of 3,T28D/D31M/K65W
nd,0 of 3,T28F/D31L/A33Y
5.27,3 of 3,M34N/A61I/Y108K
3.16,1 of 3,D31L/S55I/A61D
nd,0 of 3,I58M/V99N/R101A
1.13,3 of 3,T28F/D30R/Y105W
2.33,3 of 3,R101F/G104Y/F106I
nd,0 of 3,W53V/Y105C/Y108H
nd,0 of 3,W53C/S57F/G103C
5.23,1 of 3,F29T/H35C/S63Y
4.98,3 of 3,H35G/I58Y/R101V
nd,0 of 3,M34K/D62V
nd,0 of 3,M34P/H35C/D62T
4.90,1 of 3,M34H/G102W/Y105N
3.25,2 of 3,S63N/Y105Q
nd,0 of 3,Y32S/Y60M/V99R
nd,0 of 3,A33H/W53G/G59P
nd,0 of 3,F27D/H35Q/V99S
nd,0 of 3,Y32D/G50F
nd,0 of 3,M34E/G50V/G59T
nd,0 of 3,W53M/S57W/Y60M
5.60,2 of 3,R101P/G103Q/Y105S
nd,0 of 3,D62R/K65T/D107E
4.40,1 of 3,F29V/A33N/S57W
nd,0 of 3,F29R/G50S/D62G
4.45,1 of 3,W53S/R101W/Y108F
0.52,3 of 3,S55G/G56M/I58Q
4.18,1 of 3,G26H/F29P/G102Q
4.00,2 of 3,F27E/W53D/S57H
3.34,1 of 3,N54Q/I58E/Y60C
nd,0 of 3,F27E/V99W
nd,0 of 3,G50P/R101L/Y108G
5.04,2 of 3,G50S/G56H/D107I
nd,0 of 3,F27K/D30W/I51A
nd,0 of 3,A33C/G50V/D107C
5.49,3 of 3,F27P/I58Q/G102W
nd,0 of 3,G26S/F27G/A33M
4.23,1 of 3,I51N/K65A
4.25,3 of 3,W53R/V99L
nd,0 of 3,A33I/M34E/D62G
nd,0 of 3,F29V/I51L/G103Q
4.34,2 of 3,A33S/A61W/K65A

5 of these entries, quoted again:

changes	log10 Kd (nM), mean	replicates with signal
A33T/H35Q/G104N	5.16	1 of 3
F27E/V99W	nd	0 of 3
H35M/S55G/D62N	nd	0 of 3
S63N/Y105Q	3.25	2 of 3
T28D/D31M/K65W	0.66	3 of 3